# Results reported in patent US8008262.
# Read-outs that look alike come from different tables or passages of the source.
# How the values were obtained:
# hDM2 1-188, Q00987 [1] = molecular target: hDM2 1-188, Q00987
# hDM2 1-188, Q00987 [2] = experiment: direct fluorescence polarization
# hDM2 1-188, Q00987 [3] = experiment: competition FP against p53AD^Flu
Binder,"Kd (hDM2 1-188, Q00987 [1])","Kd (hDM2 1-188, Q00987 [2])","IC50 (hDM2 1-188, Q00987 [1])","IC50 (hDM2 1-188, Q00987 [3])"
"fluorescein-labeled p53AD15-31 peptide, P04637 15-31 (modifications not checked) peptide: not shown",230 nM,340 nM,–,–
"p53AD15-31, P04637 15-31 (modifications not checked) peptide: not shown",–,–,2500 nM,2470 nM
